# Source: PubChem BioAssay AID731 (The Scripps Research Institute Molecular Screening Center, 2007)
# Sequences of proteins named here, by UniProt entry; tags and fusion partners are left off. Residues count along the entry.
# UniProt P37231, 232-505 limits assumed: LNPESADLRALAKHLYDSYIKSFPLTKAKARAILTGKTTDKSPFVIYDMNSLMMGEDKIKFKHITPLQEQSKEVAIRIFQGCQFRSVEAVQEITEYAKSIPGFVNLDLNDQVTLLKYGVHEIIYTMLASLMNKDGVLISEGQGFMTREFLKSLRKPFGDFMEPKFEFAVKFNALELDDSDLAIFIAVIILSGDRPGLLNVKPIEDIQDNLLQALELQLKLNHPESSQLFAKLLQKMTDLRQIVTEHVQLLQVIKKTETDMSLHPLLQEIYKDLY
# UniProt Q9Y6Q9, whole entry partner: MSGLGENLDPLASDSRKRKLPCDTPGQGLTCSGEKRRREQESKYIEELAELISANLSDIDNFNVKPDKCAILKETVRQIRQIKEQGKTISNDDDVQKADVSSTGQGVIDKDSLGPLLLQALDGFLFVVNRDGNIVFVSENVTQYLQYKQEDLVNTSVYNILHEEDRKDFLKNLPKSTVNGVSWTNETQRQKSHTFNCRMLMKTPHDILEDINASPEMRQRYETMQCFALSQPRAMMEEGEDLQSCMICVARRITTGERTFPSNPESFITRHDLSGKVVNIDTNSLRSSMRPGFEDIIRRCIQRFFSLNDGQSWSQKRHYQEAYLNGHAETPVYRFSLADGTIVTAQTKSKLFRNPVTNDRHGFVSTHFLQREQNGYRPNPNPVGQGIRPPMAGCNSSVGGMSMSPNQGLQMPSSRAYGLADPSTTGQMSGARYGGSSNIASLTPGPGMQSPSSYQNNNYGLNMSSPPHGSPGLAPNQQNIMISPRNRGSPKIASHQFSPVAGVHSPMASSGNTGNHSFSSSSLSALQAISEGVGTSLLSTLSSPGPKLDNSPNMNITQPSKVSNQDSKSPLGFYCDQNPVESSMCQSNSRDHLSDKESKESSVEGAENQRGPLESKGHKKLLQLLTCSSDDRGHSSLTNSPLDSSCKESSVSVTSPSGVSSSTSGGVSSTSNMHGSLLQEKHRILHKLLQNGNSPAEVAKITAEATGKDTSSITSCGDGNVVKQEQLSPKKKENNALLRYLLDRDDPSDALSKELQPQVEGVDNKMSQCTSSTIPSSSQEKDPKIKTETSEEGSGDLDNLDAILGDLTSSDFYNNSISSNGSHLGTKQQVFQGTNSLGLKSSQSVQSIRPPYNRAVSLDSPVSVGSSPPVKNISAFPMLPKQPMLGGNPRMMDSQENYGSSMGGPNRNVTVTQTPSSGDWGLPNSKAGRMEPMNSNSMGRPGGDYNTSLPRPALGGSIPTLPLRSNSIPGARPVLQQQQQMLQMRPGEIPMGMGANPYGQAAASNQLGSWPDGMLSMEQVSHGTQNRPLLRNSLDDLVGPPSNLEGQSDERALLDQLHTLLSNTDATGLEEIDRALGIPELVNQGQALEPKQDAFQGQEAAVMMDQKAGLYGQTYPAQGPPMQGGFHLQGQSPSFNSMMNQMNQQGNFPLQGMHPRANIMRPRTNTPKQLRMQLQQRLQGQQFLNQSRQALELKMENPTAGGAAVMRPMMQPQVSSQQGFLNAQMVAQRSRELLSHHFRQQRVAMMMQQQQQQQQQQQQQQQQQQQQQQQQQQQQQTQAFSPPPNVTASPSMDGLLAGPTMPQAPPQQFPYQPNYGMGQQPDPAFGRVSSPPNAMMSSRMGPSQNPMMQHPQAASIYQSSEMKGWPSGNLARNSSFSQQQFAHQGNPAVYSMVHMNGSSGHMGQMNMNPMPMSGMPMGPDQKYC
# The entries are a selection whose mix differs from that of the whole data set. Activity calls are given as the source filed them. Rule as the data show it: active = activation above about 23%; inactive = the rest.
# Molecular target: Peroxisome proliferator-activated receptor gamma (Homo sapiens) (UniProt P37231)
# Assay: enhancers of SRC-3 binding to PPARgamma – biochemical, primary screen (AID 731);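 also: 0% = DMSO and 100% = reference agonist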
# Details: biochemical PPARgamma/SRC-3 coactivator recruitment assay; at 8 µM; stronger effect = higher value
row,SMILES,activation
1,Cc1cc(C)cc(OP(C)(=O)Nc2ccc(C)cc2C)c1 (stereo not given),inactive: 6.04%
2,CCOC(=O)c1ccc(NP(C)(=O)Oc2cc(C)cc(C)c2)cc1 (stereo not given),inactive: -0.25%
3,Cc1cc(C)cc(OP(C)(=O)Nc2ccccn2)c1 (stereo not given),inactive: -0.72%
4,CP(=O)(Nc1cccc(Br)c1)Oc1ccccc1 (stereo not given),inactive: -2.75%
5,Cc1ccc(C)c(NP(C)(=O)Oc2ccccc2)c1 (stereo not given),inactive: 0.94%
6,CC1=NCCc2c1[nH]c1ccccc21.O=[N+]([O-])c1cc([N+](=O)[O-])c(O)c([N+](=O)[O-])c1,inactive: 10.1%
7,CCCOc1ccc(NP(C)(=O)Oc2ccc(Cl)cc2)cc1 (stereo not given),inactive: -0.74%
8,CP(=O)(Nc1ccc(SC(F)(F)F)cc1)Oc1ccccc1 (stereo not given),inactive: 2.93%
9,CN1CCCCC1COC(=O)C1(O)c2ccccc2CCc2ccccc21 (stereo not given),inactive: -6.15%
10,COc1ccccc1OP(C)(=O)Nc1c(C)cccc1C (stereo not given),inactive: 9.59%
11,O=[N+]([O-])c1cc([N+](=O)[O-])c(-n2nnc3ccccc32)c([N+](=O)[O-])c1,inactive: 2.5%
12,Cc1nc2ccc3ccccc3c2s1.O=[N+]([O-])c1cc([N+](=O)[O-])c(O)c([N+](=O)[O-])c1,inactive: -11.1%
13,Cc1cc(C)cc(OP(C)(=O)Nc2ccc(SC(F)(F)F)cc2)c1 (stereo not given),inactive: -1.28%
14,CP(=O)(NC(=O)Nc1ccccc1)Oc1ccccc1 (stereo not given),inactive: 6.21%
15,CP(=O)(Oc1ccccc1)OC(c1ccccc1)C(F)(F)F (stereo not given),inactive: 6.57%
16,Cc1cccc(C)c1OP(C)(=O)Nc1ccc(SC(F)(F)F)cc1 (stereo not given),inactive: 2.79%
17,CP(=O)(Nc1ccccn1)Oc1ccc(Cl)cc1 (stereo not given),inactive: -1.61%
18,CCOP(C)(=S)SCC(=O)NC(C)C(=O)O (stereo not given),inactive: -1.38%
19,CCOC(=O)c1ccc(NP(C)(=O)Oc2ccc(OC)cc2)cc1 (stereo not given),inactive: 0.59%
20,COc1ccccc1OP(C)(=O)Nc1ccccc1 (stereo not given),inactive: 5.23%
21,CP(=O)(Nc1ccccc1Br)Oc1ccccc1 (stereo not given),inactive: 2.62%
22,CP(=S)(Nn1cnnc1)Oc1ccccc1 (stereo not given),inactive: 8.63%
23,Cc1cccc(C)c1OP(C)(N)=O (stereo not given),inactive: -3.48%
24,CC(C)(C)c1ccc(OP(C)(=O)Nc2ccc(SC(F)(F)F)cc2)cc1 (stereo not given),inactive: 3.08%

row,SMILES,activation
1,O=[N+]([O-])c1ccc2c(c1)C=Nc1ccccc1O2,inactive: -1.33%
2,COc1ccc(OP(C)(=O)Nc2cccc(F)c2)cc1 (stereo not given),inactive: -1.11%
3,COc1ccccc1OP(C)(=O)Nc1cc(Cl)ccc1C (stereo not given),inactive: 0.75%
4,Cc1cc(C)cc(OP(C)(N)=O)c1 (stereo not given),inactive: 2.11%
5,CCOC(=O)c1ccc(NP(C)(=O)Oc2ccccc2)cc1 (stereo not given),inactive: 4.75%
6,Cc1ccc(NP(C)(=O)Oc2ccccc2)c(C)c1 (stereo not given),inactive: -3.42%
7,COc1ccccc1OP(C)(=O)Nc1ccc(C)cc1 (stereo not given),inactive: -3.67%
8,CCN(CC)CCCOC(=O)C(O)(c1ccccc1)c1ccccc1,inactive: 3.89%
9,CN(C)CCOC(=O)C(O)(c1ccccc1)C1CCCC1 (stereo not given),inactive: -1.66%
10,COc1ccc(OP(C)(=O)Nc2ccccn2)cc1 (stereo not given),inactive: 5.91%
11,CCc1ccc(OP(C)(=O)O)cc1,inactive: 1.96%
12,COc1ccccc1OP(C)(=O)Nc1ccc(C)cc1C (stereo not given),inactive: -3.86%
13,CP(=O)(Nc1ccccn1)Oc1ccccc1 (stereo not given),inactive: -8.14%
14,Cc1c(NP(C)(=O)Oc2ccc(C(C)C)cc2)c(=O)n(-c2ccccc2)n1C (stereo not given),inactive: 3.1%
15,O=[N+]([O-])c1cc([N+](=O)[O-])c(Nc2ccccn2)c([N+](=O)[O-])c1,inactive: 2.83%
16,COc1ccc(OP(C)(=O)Nc2ccccc2Br)cc1 (stereo not given),inactive: 4.35%
17,COc1ccccc1OP(C)(=O)Nc1ccc(C)c(C)c1 (stereo not given),inactive: 13.7%
18,Cc1cc(C)cc(OP(C)(=O)Nc2cccc(C(F)(F)F)c2)c1 (stereo not given),inactive: 3.67%
19,CP(=O)(Nc1ccc(Cl)cc1Cl)Oc1ccccc1 (stereo not given),inactive: 3.17%
20,CP(=O)(OCCOc1ccccc1)OCCOc1ccccc1,inactive: -1.66%
21,Cc1nc2ccc3ccccc3c2o1.O=[N+]([O-])c1cc([N+](=O)[O-])c(O)c([N+](=O)[O-])c1,inactive: 8.81%
22,CP(=O)(OC12CC3CC(CC(C3)C1)C2)OC12CC3CC(CC(C3)C1)C2,inactive: 9.95%
23,CCOC(=O)c1ccc(NP(C)(=O)Oc2ccc(Cl)cc2)cc1 (stereo not given),inactive: -0.91%
24,CCc1ccc(OP(C)(=O)Nc2cccnc2)cc1 (stereo not given),inactive: 0.35%

row,SMILES,activation
1,CP(=O)(Oc1ccccc1)N1CCOC1=O (stereo not given),inactive: 2.75%
2,COc1ccccc1OP(C)(=O)Nc1c(C)n(C)n(-c2ccccc2)c1=O (stereo not given),inactive: -0.03%
3,COc1ccc(OP(C)(=O)Nc2ccc(Br)cc2)cc1 (stereo not given),inactive: 0.28%
4,CCN(CC)CC(O)COC(=O)C(O)(c1ccccc1)C1CCCCC1 (stereo not given),inactive: -0.94%
5,CN(C)C(=O)c1c([N+](=O)[O-])cc([N+](=O)[O-])cc1[N+](=O)[O-],inactive: 4.21%
6,CP(=O)(Nc1ccc(Cl)cc1)Oc1ccc(F)cc1 (stereo not given),inactive: 6.4%
7,COc1ccccc1OP(C)(=O)Nc1ccccc1Br (stereo not given),inactive: -5.19%
8,CC(C)(C)c1ccc(OP(C)(=O)O)cc1,inactive: 6.2%
9,CCOP(C)(=S)SCC(=O)NC(C)(CC)C(=O)O (stereo not given),inactive: -7.9%
10,Cc1ccccc1NP(C)(=O)Nc1ccccc1C,inactive: 4.23%
11,CP(=O)(Nc1ccc2c(c1)OCCO2)Oc1ccccc1 (stereo not given),inactive: -4.17%
12,COc1ccc(NP(C)(=O)Oc2ccccc2OC)cc1 (stereo not given),inactive: 2.22%
13,CN(C)CCOC(=O)C(O)(c1ccccc1)C1CCCCC1 (stereo not given),inactive: -6.72%
14,COc1ccc(OP(C)(=O)Nc2cccc(Br)c2)cc1 (stereo not given),inactive: -4.18%
15,O=[N+]([O-])c1cc([N+](=O)[O-])c(NCC2CCS(=O)(=O)C2)c([N+](=O)[O-])c1 (stereo not given),inactive: 0.29%
16,COc1ccc(OP(C)(=O)Nc2ccc(SC(F)(F)F)cc2)cc1 (stereo not given),inactive: 1.37%
17,CCOC(=O)c1ccc(NP(C)(=O)Oc2ccc(F)cc2)cc1 (stereo not given),inactive: -2.45%
18,CP(=O)(Nc1ccccc1)Oc1ccc(F)cc1 (stereo not given),inactive: -0.99%
19,CCN(CC)CCCOC(=O)C(O)(c1ccccc1)C1CCCCC1 (stereo not given),inactive: -5.87%
20,CC(C)c1ccc(OP(C)(=O)Nc2ccc(SC(F)(F)F)cc2)cc1 (stereo not given),inactive: -2.33%
21,CP(=O)(Nc1ccccc1F)Oc1ccccc1 (stereo not given),inactive: 1.72%
22,O=C(OCCN1CCN(CCOCc2ccccc2)CC1)C(O)(c1ccccc1)c1ccccc1,inactive: -0.93%
